In patent publication US20140086890A1, “COMPOSITIONS AND METHODS FOR TREATING HYPERPROLIFERATIVE DISORDERS” (priority 2004, published 2014):

Tested on: bulk NK cells
Assay: expansion of bulk NK cells with feeder cells and IL-2
Settings: for Expansion Fold: EBVLCL feeders, two weeks, averages of two experiments

For “IL-2: interleukin-2 in NK cell culture media”, the “influence of IL-2 concentration on NK cell expansion” value (5 to 500 IU/mL, EBV-LCLs as feeders) was “did not influence”, the “Expansion Fold” value (IL-2 5 IU/ml) was 6.8 × 10^3 fold and the “Expansion Fold” value (IL-2 50 IU/ml) was 2.5 × 10^4 fold. The “Expansion Fold” value (IL-2 100 IU/ml) was 2.6 × 10^4 fold and the “NK cell net expansion after 14 days” value (IL-2 (500 IU) containing SCGM media alone, no feeders) was ~10^2 fold.
